The IC50 is the concentration that inhibits the measured activity by half.

The subject of experiment [1] is panel of melanoma and breast cancer cell lines. The experiment in a line: Average growth inhibition in panel of melanoma and breast cancer cell lines. Conditions: Homo sapiens, read-out: Average IC50. Type of experiment: cell-based.
Another experiment concerns OVCAR3 and OVCAR8 cells. The experiment in a line: Average growth inhibition in ovarian cancer cell lines. Format: cell-based. Conditions: Homo sapiens, read-out: Average IC50.
In experiment [2] the test system is OVCAR8 orthotopic ovarian tumors. The experiment in a line: Orthotopic OVCAR8 ovarian cancer mouse model. Type of experiment: in vivo. As to conditions: ex vivo, endpoint, vs vehicle.

For the molecule `Oc1c(CN2CCCCC2)cc(Cn2ncc(-c3ccc(C(F)(F)F)cc3)n2)c2cccnc12` [Compound 12b, 7-(piperidin-1-ylmethyl)-5-((4-(4-(trifluoromethyl)phenyl)-2H-1,2,3-triazol-2-yl)methyl)quinolin-8-ol], the IC50 in experiment [1] was determined as 1700 nM; in the experiment on OVCAR3 and OVCAR8 cells, 1100 nM. In addition, the “luciferase activity (photon flux) of the excised ovaries” value in experiment [2] is reported as “remarkable decrease in luciferase activity”.

The values are drawn from PMC8511083 (European journal of medicinal chemistry, 2021).
